The text below walks through data of ChEMBL document CHEMBL4715797, “Structure-Activity Relationships of [des-Arg]Dynorphin A Analogues at the κ Opioid Receptor” (J Med Chem, 2016).

Amino acid sequences for entries named in this document (tags omitted).
UniProt P35372, whole entry: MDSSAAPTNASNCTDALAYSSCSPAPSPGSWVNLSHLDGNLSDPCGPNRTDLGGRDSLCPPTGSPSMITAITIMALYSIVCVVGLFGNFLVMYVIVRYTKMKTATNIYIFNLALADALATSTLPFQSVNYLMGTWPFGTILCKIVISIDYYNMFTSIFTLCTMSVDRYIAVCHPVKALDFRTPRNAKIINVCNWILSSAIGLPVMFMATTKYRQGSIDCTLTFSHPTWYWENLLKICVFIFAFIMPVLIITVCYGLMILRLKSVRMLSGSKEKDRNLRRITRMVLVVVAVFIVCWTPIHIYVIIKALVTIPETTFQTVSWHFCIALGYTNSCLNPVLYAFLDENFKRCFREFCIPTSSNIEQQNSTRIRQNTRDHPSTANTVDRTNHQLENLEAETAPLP

For this assay, the target named is Mu-type opioid receptor (Homo sapiens, UniProt P35372). Put plainly: Displacement of [3H]diprenorphine from human MOR expressed in mouse NG108-15 cell membranes incubated for 2 hrs by liquid scintillation counting based radioligand competition assay. In general terms: Loss of bound radioactivity is the signal in a displacement assay; it reports binding, not function.

Take `CC[C@H](C)[C@H](NC(=O)[C@H](CCCNC(=N)N)NC(=O)[C@H](CCCNC(=N)N)NC(=O)[C@H](CC(C)C)NC(=O)[C@H](Cc1ccccc1)NC(=O)CNC(=O)CNC(=O)[C@@H](N)Cc1ccc(O)cc1)C(=O)N[C@@H](CCCNC(=N)N)C(=O)N1CCC[C@H]1C(=O)N[C@@H](CCCCN)C(=O)N[C@@H](CC(C)C)C(=O)N[C@@H](CCCCN)C(=O)O` [ANALOG OF DYNORPHIN A]: the affinity corresponds to a Ki of 8 nM.
